## AlphaSeq binding of Ab-14 heavy chain variants to a spike HR2 peptide

Target: peptide PDVDLGDISGINAS, taken from heptad repeat 2 (HR2) of SARS-CoV-2 spike.

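Phage display of a naive human antibody library on the peptide gave the parent. Designed CDR sequences, proposed from the first random library and measured here. Group labels follow the data file (Ctrl: baseline library sampled from a position-specific scoring matrix, with some repeated check sequences; Rand: our label for a block that the file lists under HC and that is probably the random mutants of the ten best first-round binders; En: ensemble of fine-tuned language models; GP: Gaussian process model; GPLM: also part of the Gaussian process libraries; HC: hill climbing; Gen: genetic algorithm; Gibbs: Gibbs sampling; a sequence that several methods proposed may carry one label only). The assay is AlphaSeq: two haploid yeast populations carry antibody and antigen on their surface. Mating (16 h, 30 °C) was followed by selection of diploids and sequencing of their barcodes. The ratio of observed to expected reads was calibrated, replicate by replicate, on BCL2-family standards whose Kd was known from biolayer interferometry. The assay was run in six technical replicates.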

The variants keep the light chain, the linker and the frameworks of Ab-14 (scFv order VH, a (GGGGS)3 linker, VL).
VH: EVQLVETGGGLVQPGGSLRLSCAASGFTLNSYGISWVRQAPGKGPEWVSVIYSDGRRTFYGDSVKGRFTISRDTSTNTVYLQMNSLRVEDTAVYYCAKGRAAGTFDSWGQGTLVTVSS
VL: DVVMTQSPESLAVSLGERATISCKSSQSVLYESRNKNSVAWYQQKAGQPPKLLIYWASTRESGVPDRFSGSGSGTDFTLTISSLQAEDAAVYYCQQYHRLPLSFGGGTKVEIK

Each variant is given by its three heavy chain CDRs, as the data file delimits them; those of the parent are GFTLNSYGIS, VIYSDGRRTFYGDSVK, GRAAGTFDS. Numbers give log10(Kd / nM), so 0 is 1 nM and 3 is 1 µM. Smaller is tighter. Averages over replicates are reported, and they cover detected replicates only. An entry "nd" has no value in the source: the pair was not observed among the diploids in any replicate. This suggests poor binding but is not conclusive. The list is sorted by this average, lowest first, undetected variants last.

mean log10 Kd (nM)	replicates with signal	signal with controls	CDR-H1	CDR-H2	CDR-H3	group
-1.60	6 of 6	0 of 18	GFDLNEYGIS	VIYADGKRTAYIDSVK	GNNAGTFDI	En_Gen
-0.76	6 of 6	0 of 18	GFDLNEYGIS	VIYADGMRTYYADSVK	GTNAGTFDI	En_Gen
-0.58	6 of 6	0 of 18	GFDLNEYGIS	VIYADGMRKVYADSVK	GNVAGTFDV	En_Gen
-0.57	6 of 6	0 of 18	GFDLNDYGIS	VIYADGRRTAYSDSVK	GEVAGTFDS	En_HC
-0.40	6 of 6	0 of 18	GFDLNEYGIS	VIYADGVRQAYADSVK	GNVAGTFDV	En_Gen
-0.38	6 of 6	0 of 18	GFDLNEYGIS	VIYADGMRKFYADSVK	GENAGTFDV	En_Gen
-0.34	6 of 6	0 of 18	GFDLNEYGIS	VIYADGVRTAYSDSVK	GQNAGTFDL	En_Gen
-0.29	6 of 6	0 of 18	GFDLNEYGIS	VIYADGRRTFYIDSVK	GTAAGTFDQ	En_HC
-0.27	6 of 6	0 of 18	GFDLNEYGIS	VIYADGRRTAYADSVK	GEAAGTFDF	En_HC
-0.27	6 of 6	0 of 18	GFDLNEYGIS	VIYADGSRTAYADSVK	GNVAGTFDT	En_Gen
-0.26	6 of 6	0 of 18	GFDLNDYGIS	VIYADGRRTAYIDSVK	GEVAGTFDS	En_HC
-0.18	6 of 6	0 of 18	GFSLNSYGIS	VIYSDGRRTFYSDSVK	GRIAGTFDS	GPLM_Gibbs
-0.13	6 of 6	0 of 18	GFDLEEYGIS	VIYADGKRTFYSDSVK	GEAAGTFDV	En_HC
-0.07	6 of 6	2 of 18	GFELNNYGIS	VIYSDGRRTFYGDSVK	GREAGTFDT	GP_Gen
-0.05	6 of 6	0 of 18	GFDLNEYGIS	VIYADGRRTFYIDSVK	GETAGTFDV	En_HC
0.07	6 of 6	0 of 18	GFDLEDYGIS	VIYADGRRTAYADSVK	GETAGTFDL	En_HC
0.09	6 of 6	1 of 18	GFTLNEYGIS	VIYSDGRRTFYGDSVK	GKTAGTFDT	GP_Gen
0.18	6 of 6	0 of 18	GFDLNSYGIS	VIYSDGRRTFYGDSVK	GQTAGTFDL	GPLM_Gibbs
0.21	6 of 6	0 of 18	GFTLNAYGIS	VIYSDGRRTFYSDSVK	GTAAGTFDS	GP_HC
0.22	6 of 6	0 of 18	GFELNSYGIS	VIYSDGRRTFYHDSVK	GQEAGTFDS	GP_Gibbs
0.23	6 of 6	0 of 18	GFDLNEYGIS	VIYADGQRTAYADSVK	GTVAGTFDV	En_Gen
0.25	6 of 6	0 of 18	GFDLNEYGIS	VIYADGMRTAYVDSVK	GEVAGTFDT	En_Gen
0.30	6 of 6	0 of 18	GFDLNSYGIS	VIYSDGRRTFYGDMVK	GRTAGTFDD	GP_Gibbs
0.38	6 of 6	0 of 18	GFDLNEYGIS	VIYADGMRTVYADDVK	GNNAGTFDI	En_Gen
0.82	6 of 6	1 of 18	GFELNSYGIS	VIYSDGRRTFYGDSVK	GRIAGTFDS	GPLM_Gen
0.88	6 of 6	0 of 18	GFLLNNYGIS	VIYSDGRRTFYDDSVK	GQLAGTFDS	GP_HC
1.40	4 of 6	0 of 18	GFQLNSYGIS	VIYSDGRRTFYGDSVK	GRQAGTFDS	GPLM_Gen
1.61	5 of 6	0 of 18	PFTLESYGIS	VIYADGRRTFYGDSVK	GRAAGTFDS	GP_Gen
1.66	5 of 6	1 of 18	GFSLNEYGIS	VIYSDGRRTFYCDSVK	GGAAGTFDR	GP_HC
1.74	2 of 6	1 of 18	GDTLNSYGIS	VIYSDGRRTFYGDSVK	GEAAGTFDS	Ctrl
1.75	1 of 6	0 of 18	GLTLNSYGIS	VIYSDGRRNFYDDSVK	GNAAGTFDS	Ctrl
1.79	1 of 6	0 of 18	GFTLNSYGIS	VIYSDGRRTFYGDSVK	GRHAGVFDT	Ctrl
1.92	1 of 6	0 of 18	GFDLDEYGVS	VIYADGRRKKYADSVK	GTNGGTINA	En_Gibbs
1.92	5 of 6	0 of 18	GFTLESYGIS	VIYSDGRRTFYADPVK	GRAAGTFDK	GP_Gibbs
1.97	3 of 6	0 of 18	GFTLNSYGIS	VIYSDGRRTFYDDDVK	GQTAGTFDS	GP_HC
1.99	1 of 6	0 of 18	GFTLNEYGIS	VIYSDGRRTFYADSVK	GREAGTFDS	GP_HC
2.05	4 of 6	0 of 18	GFWLNDYGIS	VIYSDGRRTFYVDSVK	GRQAGTFDS	GPLM_Gibbs
2.43	1 of 6	0 of 18	GFNLNEYGIS	VIYSDGYRTFYGDSVK	GRLAGIFDS	Ctrl
3.41	1 of 6	0 of 18	GMDLDEYGIS	VIYADGHRRYYAANVK	GVNIDGFDL	En_Gibbs
nd	0 of 6	0 of 18	GFTLNEYGIS	VIYSDGRRTFYTDSVK	RRFAGTFDS	Rand
nd	0 of 6	0 of 18	GFSLNSYGIS	VIYSDGRRTFYDDSVK	GHQAGTFDS	GP_Gibbs
nd	0 of 6	0 of 18	GFTLNSYGIS	VIYSDGRRTFYGDSVK	GAEAGTFDT	GPLM_Gen
nd	0 of 6	0 of 18	GDGLDEYGIS	VIYADGQRKFYADNVK	GVFGSLGQV	En_Gibbs
nd	0 of 6	0 of 18	GFPLNSYGIH	VIYSDGRRTFYGDSVK	GRNAGTFDS	Ctrl
nd	0 of 6	0 of 18	GFDLNSYGQS	VIYSWGRRTFYCDSVK	QRAADWFNS	Rand
nd	0 of 6	0 of 18	GFTLNSYGIS	VIYSDGRRTFYLDSVD	GRFAGTFDS	Ctrl
nd	0 of 6	0 of 18	GFTLNDYGIS	VIYSDGRRTFYTDSVK	GRAAGTFIS	GPLM_HC
nd	0 of 6	0 of 18	GFVLNSYGIS	VIYSDGRRTFYGDSVK	GKTAGTFDS	GPLM_Gibbs
nd	0 of 6	2 of 18	GFTLNQYGIS	VIYSDGRRTFYSDAVK	GRAAGFFDS	Rand
nd	0 of 6	0 of 18	GFTLNSYGIS	VIYADMRRTQYGDTVK	GRAAGTNKS	Rand
nd	0 of 6	0 of 18	GFTLNSYGIS	VIYADGRRTFYGDSVK	GRAADTNFS	Rand
nd	0 of 6	0 of 18	GMNLDEYGIS	VIYADGKRCAYANTVK	GELAGFFML	En_Gibbs
nd	0 of 6	0 of 18	GFTLNEYGIS	VIYSDGRRTFYGDSVK	GRAADTFDS	Ctrl
nd	0 of 6	0 of 18	GFTLNSYGIS	VIYSDGKRTFYGDRVK	GRTAGTFDS	GP_Gen
nd	0 of 6	1 of 18	GFTLNSYGIS	VIYSDGRRTFYTDSVK	GRAAGIFDS	Ctrl
nd	0 of 6	0 of 18	GFDINEYGIS	VIYADGQRVYYAEKVK	GFNQTINVV	En_Gibbs
nd	0 of 6	1 of 18	GFDLQEYGVS	VIYADGRRMVYTNKFK	GGSTGTFDF	En_Gibbs
nd	0 of 6	0 of 18	GFTLNSYGIS	VIYSDGRRTFYGNSVK	GKEAGNFDS	Ctrl

In the paper, a design with two or fewer of six values counts as a poor binder. Values of this round are not directly comparable with the first-round values of the same sequences. Background: pairings of all heavy chain designs with three empty control strains gave a value in 1% of cases (median 2.08, 5th percentile 0.84). Values in that range, when seen in few replicates, are hard to tell from nonspecific mating. The control count says in how many pairings with the empty strains this scFv gave a signal.

Values reported by Li et al. 2023, doi:10.1038/s41467-023-39022-2 (FLAb copy).